# US20180256495A1 (MEDRx Co., Ltd., priority 2008, published 2018)
# Experiment: State of the liquid preparation (precipitation, homogeneity, solubility or dispersion of the salt)
# Settings: morphine 2 w/w % liquid preparation with the row's acid; wrapped cell 'small amount of' + 'precipitation' = small amount of white precipitation remained
smiles,measurement,value
CC(=O)Oc1ccccc1C(=O)O [acetylsalicylic acid],Remarks (state of the liquid preparation),homogeneous solution
